Values of other authors, collected in patent US4921695A, “Antianginal plate for treating ischemic heart disease” (dated 1990).

Details: tablets per os

## O=[N+]([O-])O[C@H]1CO[C@H]2[C@@H]1OC[C@H]2O[N+](=O)[O-]
  Bioavailability per os: low
  Form in which active principle reaches the blood: inactivated form
  Metabolism in the liver: rapidly metabolized in the liver
